# Experimental data as given in ChEMBL document CHEMBL6071155, “Discovery of selective Orai channel blockers bearing an indazole or a pyrazole scaffold” (Eur J Med Chem, 2024).
# By UniProt entry, the sequences of proteins in these tests, tags left out.
# Calcium release-activated calcium channel protein 1 (Homo sapiens), Q96D31, UniProt Q96D31, whole entry G98S: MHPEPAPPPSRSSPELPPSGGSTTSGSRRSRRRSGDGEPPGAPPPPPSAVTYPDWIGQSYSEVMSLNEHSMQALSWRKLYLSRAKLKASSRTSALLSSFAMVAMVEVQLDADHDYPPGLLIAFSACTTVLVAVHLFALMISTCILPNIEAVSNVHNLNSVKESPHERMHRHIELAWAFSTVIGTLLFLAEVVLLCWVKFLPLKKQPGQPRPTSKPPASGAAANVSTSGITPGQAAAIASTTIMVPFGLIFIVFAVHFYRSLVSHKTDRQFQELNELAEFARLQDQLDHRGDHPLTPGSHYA
# Tested on: Calcium release-activated calcium channel protein 1 (Homo sapiens), Q96D31 [G98S]
# Test: Reversible inhibition of myc-tagged human Orai-1 G98S mutant expressed in HEK293 cells assessed as reduction in inward current at 10 uM measured upto 6 mins by patch clamp electrophysiology
# Assay type: cell-based
smiles,measurement,value
Cc1nnsc1C(=O)Nc1ccc(-n2nc(C(F)(F)F)cc2C(F)(F)F)cc1,inhibition,Active

# The source made the active and inactive calls. No cut-off for these calls is given here.
